Laboratory results taken from patent US10500304B2, “Films and methods of manufacture” (priority 2013, dated 2019).

Assay: Implantation of sleeve-covered metal plates in sheep
Details: released from the polymer film, sheep studies

For gentamicin, the “Peak plasma gentamicin levels” value was about 0.1 µg/mL.
